# Laboratory results: US20070071725A1, “Nitric oxide synthase gene transfer” (priority 2002, published 2007)
# System: isolated right atrium
# Assay: [3H]norepinephrine release on field stimulation of the isolated right atrium
# Set-up: species or system SD rat
# Settings: superfusion 20 μM, naive hearts, n=6
substance,measurement,value
sodium nitroprusside,NE release,1.281±0.105 % of total
same,decrease of NE release,21.4%

# This is a selection: effects in other tests are not listed, and their absence says nothing.
